This is an account of results in BindingDB's records for doi:10.1021/jm00080a030 (Abbott Laboratories, 1992).

The test has as its target C5a anaphylatoxin chemotactic receptor 1 (Homo sapiens) (UniProt P21730). As to the kind of experiment: Potency as the maximal lysosomal myeloperoxidase (MPO) release in PMNL assay.

Broadly, the EC50 is the concentration needed to bring the measured effect to its halfway point. Higher therefore signals a need for much substance. For `CC[C@H](C)[C@H](N)C(=O)N[C@@H](CO)C(=O)N[C@@H](Cc1ccccc1)C(=O)N[C@@H](CCCCN)C(=O)N[C@@H](CC(=O)O)C(=O)N[C@@H](CCSC)C(=O)N[C@@H](CCC(N)=O)C(=O)N[C@@H](CC(C)C)C(=O)NCC(=O)N[C@@H](CCCNC(=N)N)C(=O)O`, the EC50 was 60 µM.

`CC[C@H](C)[C@H](NC(=O)[C@H](CC(N)=O)NC(=O)[C@H](C)N)C(=O)N[C@@H](CO)C(=O)N[C@@H](Cc1ccccc1)C(=O)N[C@@H](CCCCN)C(=O)N[C@@H](CC(=O)O)C(=O)N[C@@H](CCSC)C(=O)N[C@@H](CCC(N)=O)C(=O)N[C@@H](CC(C)C)C(=O)NCC(=O)N[C@@H](CCCNC(=N)N)C(=O)O` registered an EC50 of 330 µM. This EC50 lies about 5.5-fold higher than the previous one.
